Values of other authors in patent publication US4835182A (priority 1987, dated 1989).

Settings: most widely used drug in the treatment of brain tumors; cited from earlier work

O=NN(CCCl)C(=O)NCCCl [BCNU]
brain/plasma ratio: approximately 0.3
